Among the data in article PMC8413284 are drop in CDC killing with the P331S mutation, CDC lysis of Ramos cells and enhancement in CDC activity above wild-type hIgG1 values, retold here.

Chains of the proteins cited; added tags and fusions are not shown. A change or cut given only in a name is not applied to a line headed by its entry. Chains listed by the source or under a name are the forms on record and can include a tag or linker. Residues count along the entry.
UniProt P02745, 23-245: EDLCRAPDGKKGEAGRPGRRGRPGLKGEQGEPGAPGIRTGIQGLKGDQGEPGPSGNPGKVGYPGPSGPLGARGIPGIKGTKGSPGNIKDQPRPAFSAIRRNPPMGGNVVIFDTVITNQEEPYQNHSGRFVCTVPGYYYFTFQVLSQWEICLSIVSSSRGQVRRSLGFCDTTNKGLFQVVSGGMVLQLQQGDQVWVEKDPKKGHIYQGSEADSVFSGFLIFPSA
purified human C1q, UniProt P02746, 28-253: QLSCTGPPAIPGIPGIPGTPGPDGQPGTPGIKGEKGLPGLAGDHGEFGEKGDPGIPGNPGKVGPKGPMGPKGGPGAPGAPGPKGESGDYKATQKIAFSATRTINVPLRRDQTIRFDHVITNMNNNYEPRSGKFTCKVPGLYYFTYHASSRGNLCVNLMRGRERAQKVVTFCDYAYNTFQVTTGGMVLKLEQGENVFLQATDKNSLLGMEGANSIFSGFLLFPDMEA
purified human C1q, UniProt P02747, 29-245: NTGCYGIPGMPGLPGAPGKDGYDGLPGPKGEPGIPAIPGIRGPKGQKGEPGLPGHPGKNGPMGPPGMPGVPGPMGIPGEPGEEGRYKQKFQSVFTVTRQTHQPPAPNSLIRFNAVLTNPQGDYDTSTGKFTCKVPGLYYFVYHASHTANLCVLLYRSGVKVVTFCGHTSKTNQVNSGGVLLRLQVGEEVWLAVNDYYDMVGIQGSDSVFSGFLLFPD
rituximab hIgG1 μtp C575S P331S (human), heavy, as listed by the source, chain 1 of 2: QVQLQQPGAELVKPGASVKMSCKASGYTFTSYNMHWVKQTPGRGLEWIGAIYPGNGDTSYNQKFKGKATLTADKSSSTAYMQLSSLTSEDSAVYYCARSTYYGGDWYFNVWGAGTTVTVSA
rituximab hIgG1 μtp C575S P331S (human), light, as listed by the source, chain 2 of 2: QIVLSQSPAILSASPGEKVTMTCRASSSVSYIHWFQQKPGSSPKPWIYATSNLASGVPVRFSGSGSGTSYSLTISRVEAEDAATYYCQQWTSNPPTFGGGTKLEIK

In assay [1] the target is rituximab hIgG1 μtp C575S P331S (human).
In assay [2] the target is rituximab hIgG2 μtp pre-formed hexamer (human).
Assay [3] has as its target rituximab hIgG1 μtp pre-formed hexamer (human).

“purified human C1q (from UniProt P02745 23-245; P02746 28-253; P02747 29-245) (complex)”: the drop in CDC killing with the P331S mutation in assay [1] worked out at 53%. The same substance returned a CDC lysis of Ramos cells at 10 µg/ml mAb in assay [2] of 100%. Moreover, the enhancement in CDC activity above wild-type hIgG1 in assay [3] came to 130 fold.
